For the assay, the target named is T1, Tyrosine-protein phosphatase non-receptor type 1 (Homo sapiens) (UniProt P18031).
T1 sequence (whole entry): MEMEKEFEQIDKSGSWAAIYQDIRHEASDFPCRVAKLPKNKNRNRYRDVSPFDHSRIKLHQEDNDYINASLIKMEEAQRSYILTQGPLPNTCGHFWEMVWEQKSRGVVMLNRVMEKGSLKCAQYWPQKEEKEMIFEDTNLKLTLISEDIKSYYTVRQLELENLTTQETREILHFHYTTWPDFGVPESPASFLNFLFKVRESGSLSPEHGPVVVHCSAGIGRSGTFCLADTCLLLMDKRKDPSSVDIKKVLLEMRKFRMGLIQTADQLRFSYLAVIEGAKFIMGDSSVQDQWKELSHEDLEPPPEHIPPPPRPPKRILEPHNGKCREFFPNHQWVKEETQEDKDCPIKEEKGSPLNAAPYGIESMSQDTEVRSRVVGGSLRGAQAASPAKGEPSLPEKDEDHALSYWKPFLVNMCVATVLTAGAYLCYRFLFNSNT
In words: Competitive type inhibition of human recombinant PTP1B (1 to 322 residues) extracted from Escherichia coli using p-nitrophenyl phosphate as substrate preincubated for 2 mins followed by substrate addition and measured after 15 mins by Lineweaver-Burk analysis. As to conditions: time 17.0 min.

SMILES strings stand for the structures. Active and inactive are the calls of the source. The rule behind the calls is not given here.

As for `CC1=C2O[C@]34OC(c5ccccc5)CC(O)=C3C(=O)C(C)(C)C(=O)[C@]4(C)CC2=C(O)C(C(=O)/C=C/c2ccccc2)C1=O` (stereo partly specified), the inhibition entry is “Active”.

The record behind these values is ChEMBL document CHEMBL6071128, “Chalcone-Monoterpene Derivatives from the Buds of Cleistocalyx operculatus and Their Potential as Protein Tyrosine Phosphatase 1B Inhibitors” (J Nat Prod, 2024).
